# AlphaSeq binding of Ab-95 light chain variants to a spike HR2 peptide

Source: Engelhart et al. 2022 (doi:10.1038/s41597-022-01779-4), MIT Lincoln Laboratory and A-Alpha Bio; data file from the FLAb repository.

All variants were tested on one target, the spike HR2 peptide PDVDLGDISGINAS (SARS-CoV-2).

Parent scFv Ab-95: VH joined to VL by a 15-residue (Gly4Ser)3 linker. Changes lie in the light chain CDRs alone.
VH: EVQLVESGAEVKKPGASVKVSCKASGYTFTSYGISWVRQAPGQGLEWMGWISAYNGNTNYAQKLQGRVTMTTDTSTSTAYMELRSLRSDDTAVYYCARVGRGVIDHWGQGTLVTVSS
VL: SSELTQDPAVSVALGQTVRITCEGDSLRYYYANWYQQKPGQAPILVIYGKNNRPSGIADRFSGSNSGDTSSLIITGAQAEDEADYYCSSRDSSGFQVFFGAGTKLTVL

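The parent was found by panning a naive human phage display library on the peptide. Variants in AAYL52 differ from the parent at up to three CDR positions; double and triple changes were sampled at random. In AlphaSeq, yeast of one mating type display the scFv and yeast of the other type display the target. Binding brings cells together so that they mate, and sequencing counts the barcode pairs among the diploids. Scores were corrected for input abundance and mapped to Kd with protein pairs of known affinity run in the same pool. Each pool was mated in three replicate cultures.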

Changes read parent residue, position, new residue, counted from the first residue of the VL shown. The read-out is the apparent dissociation constant on a log10 scale (nM): the lower, the stronger. Replicates are averaged; those with no signal do not enter the mean. "nd" marks a missing value. The strain was present, yet no cells mated with the target were sequenced in any replicate, which points to weak or no binding. The list is sorted by this average, lowest first, undetected variants last.

0.63 (3 of 3 replicates): Y30N+R90P+F95T.
1.17 (3 of 3 replicates): Y30M+K50T+S88M.
1.61 (3 of 3 replicates): Y30Q+Y31E+R53F.
2.09 (3 of 3 replicates): L27M+Q96N.
2.16 (3 of 3 replicates): D25I+N52V.
2.18 (3 of 3 replicates): E23K+A32P+R53P.
2.20 (3 of 3 replicates): Y29S+Y31T.
2.24 (3 of 3 replicates): S88F+R90S+S92C.
2.27 (3 of 3 replicates): E23R+N52F+Q96M.
2.31 (3 of 3 replicates): S26M+Q96F+F98P.
2.37 (3 of 3 replicates): Y30V+Y31W+S55Q.
2.37 (3 of 3 replicates): R90V+S93R+F95Y.
2.53 (3 of 3 replicates): K50H+N52S+G94W.
2.73 (2 of 3 replicates): E23F+A32D+N33H.
2.89 (3 of 3 replicates): G24N+R28W+N52V.
2.90 (3 of 3 replicates): R28Y+G94N+Q96I.
2.92 (3 of 3 replicates): S26F+R28N+Y31T.
2.99 (2 of 3 replicates): S55P+R90Y+S93Q.
3.07 (3 of 3 replicates): Y31M+N52F+Q96F.
3.30 (3 of 3 replicates): S93M+F98I.
3.34 (3 of 3 replicates): E23T+R53Y+S92N.
3.35 (1 of 3 replicates): A32P+N51S+R90A.
3.37 (1 of 3 replicates): L27M+N51P+F98S.
3.40 (3 of 3 replicates): E23D+Y29Q+Q96T.
3.51 (3 of 3 replicates): G24R+Y29Q+Y31F.
3.60 (2 of 3 replicates): P54D+F95I.
3.61 (2 of 3 replicates): E23T+G94R+F98Y.
3.63 (3 of 3 replicates): D91P+G94Y+F95V.
3.67 (2 of 3 replicates): Y30N+N33F+G49P.
3.72 (1 of 3 replicates): G24K+S26T+S89C.
3.88 (3 of 3 replicates): R53W+R90Y+F95H.
3.93 (3 of 3 replicates): Y31R+R53H+P54H.
3.95 (1 of 3 replicates): D25T+S26M+Q96D.
3.98 (3 of 3 replicates): S26D+G49V+N52P.
4.01 (3 of 3 replicates): K50H+R90W.
4.10 (1 of 3 replicates): D25T+R90A+G94L.
4.22 (2 of 3 replicates): S55F+S88A+S89K.
4.34 (1 of 3 replicates): E23W+Y29L+D91C.
4.36 (2 of 3 replicates): G24F+D25N+P54I.
4.91 (1 of 3 replicates): G24E+S89E+V97A.
5.39 (1 of 3 replicates): L27W+N51T+V97K.
5.45 (1 of 3 replicates): N52K+Q96Y+F98L.
nd (0 of 3 replicates): R53I+S55I+G94F.
nd (0 of 3 replicates): G49I+K50M.
nd (0 of 3 replicates): A32E+N52V+R90D.
nd (0 of 3 replicates): S26Q+S89F+S92E.
nd (0 of 3 replicates): D25Q+S92D+S93K.

Again, the first 5 entries without any signal:

Variant R53I+S55I+G94F gave nd (0 of 3 replicates).
Variant G49I+K50M gave nd (0 of 3 replicates).
Variant A32E+N52V+R90D gave nd (0 of 3 replicates).
Variant S26Q+S89F+S92E gave nd (0 of 3 replicates).
Variant D25Q+S92D+S93K gave nd (0 of 3 replicates).

Three control strains display no target. For library AAYL52, 28% of the pairings with them gave a signal, with a median of 3.91 and one signal in twenty below 2.90, so weak values seen in few replicates may be background.